Measured values published in US20130243707A1 (published 2013).

Legend:
[1] = Super-solvent water effect (maximum water before NSAID precipitates); conditions: Ibuprofen 4 gm, PG 4 gm, PEG 3 gm, EtOH 1 gm, IPA 1.1 gm
[2] = Super-solvent effect (Drug solubilized by combinations of solvent alcohols)

SMILES: CC(C)Cc1ccc(C(C)C(=O)O)cc1 (centres unmarked) [Ibuprofen]
- Super-solvent Effect on water [1]: 49.8%
- Super-solvent Effect ([2]; EtOH 1 gr, IPA 1.1 gr): 48.8%
- Super-solvent Effect ([2]; PEG 400 3 gr, EtOH 1 gr): 15.4%
- Super-solvent Effect ([2]; PEG 400 3 gr, EtOH 1 gr, IPA 1.1 gr): 4.0%
- Super-solvent Effect ([2]; PEG 400 3 gr, IPA 1.1 gr): 15.5%
- Super-solvent Effect ([2]; PG 4 gr, EtOH 1 gr): 31.3%
- Super-solvent Effect ([2]; PG 4 gr, EtOH 1 gr, IPA 1.1 gr): 28.8%
- Super-solvent Effect ([2]; PG 4 gr, IPA 1.1 gr): 31.5%
- Super-solvent Effect ([2]; PG 4 gr, PEG 400 3 gr): 50.0%
- Super-solvent Effect ([2]; PG 4 gr, PEG 400 3 gr, EtOH 1 gr): 32.0%
- Super-solvent Effect ([2]; PG 4 gr, PEG 400 3 gr, IPA 1.1 gr): 41.2%
